# Measured values from PubChem BioAssay AID651957 (The Scripps Research Institute Molecular Screening Center, 2012).
# Sequences of proteins named here, by UniProt entry; tags and fusion partners are left off. A change or cut given only in a name is not applied to a line headed by its entry.
# UniProt Q15596: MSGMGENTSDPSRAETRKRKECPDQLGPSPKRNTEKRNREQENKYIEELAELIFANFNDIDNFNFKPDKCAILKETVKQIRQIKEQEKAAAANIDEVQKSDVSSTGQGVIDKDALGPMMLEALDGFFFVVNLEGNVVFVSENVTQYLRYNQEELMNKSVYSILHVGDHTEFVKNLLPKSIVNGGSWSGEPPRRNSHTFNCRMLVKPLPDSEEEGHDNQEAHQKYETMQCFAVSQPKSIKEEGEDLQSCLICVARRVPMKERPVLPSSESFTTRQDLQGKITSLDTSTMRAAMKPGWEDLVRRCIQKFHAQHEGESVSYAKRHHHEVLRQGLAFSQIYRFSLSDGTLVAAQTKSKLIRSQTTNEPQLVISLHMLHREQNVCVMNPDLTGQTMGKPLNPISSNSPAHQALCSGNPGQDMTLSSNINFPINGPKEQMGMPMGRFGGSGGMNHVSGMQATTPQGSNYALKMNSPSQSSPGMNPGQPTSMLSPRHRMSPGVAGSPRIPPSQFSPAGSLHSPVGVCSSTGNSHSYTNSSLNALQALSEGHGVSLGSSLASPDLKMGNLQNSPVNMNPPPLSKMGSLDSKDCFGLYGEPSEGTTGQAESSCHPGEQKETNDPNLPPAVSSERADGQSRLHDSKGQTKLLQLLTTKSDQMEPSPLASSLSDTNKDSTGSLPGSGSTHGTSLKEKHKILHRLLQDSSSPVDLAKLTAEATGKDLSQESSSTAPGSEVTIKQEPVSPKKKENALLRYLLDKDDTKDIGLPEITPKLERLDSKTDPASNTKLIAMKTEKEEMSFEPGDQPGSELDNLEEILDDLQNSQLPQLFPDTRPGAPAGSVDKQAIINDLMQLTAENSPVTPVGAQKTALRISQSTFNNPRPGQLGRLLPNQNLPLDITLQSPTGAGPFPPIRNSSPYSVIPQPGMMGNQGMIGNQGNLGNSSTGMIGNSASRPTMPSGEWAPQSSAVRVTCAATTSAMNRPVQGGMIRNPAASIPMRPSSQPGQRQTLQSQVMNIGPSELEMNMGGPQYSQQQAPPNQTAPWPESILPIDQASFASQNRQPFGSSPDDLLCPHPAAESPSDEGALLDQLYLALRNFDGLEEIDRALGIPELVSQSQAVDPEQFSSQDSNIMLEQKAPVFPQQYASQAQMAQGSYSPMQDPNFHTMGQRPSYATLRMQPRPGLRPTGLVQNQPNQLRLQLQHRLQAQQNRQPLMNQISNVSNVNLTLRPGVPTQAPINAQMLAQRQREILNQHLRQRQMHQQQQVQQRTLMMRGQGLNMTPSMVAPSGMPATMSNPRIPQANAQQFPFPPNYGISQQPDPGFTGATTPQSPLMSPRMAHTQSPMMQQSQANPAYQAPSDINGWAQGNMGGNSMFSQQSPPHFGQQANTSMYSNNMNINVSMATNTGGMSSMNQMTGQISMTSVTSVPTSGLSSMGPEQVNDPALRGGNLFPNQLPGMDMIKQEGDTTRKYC
# The list shows a part of the results, in another mix than the full data. The source made the active and inactive calls.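 Rule for the calls: active = inhibition above the mean inhibition of all tested compounds plus 3 SD, set per campaign (cut at about 52% in these data); inactive = the rest.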
# Biological target: Nuclear receptor coactivator 2 (Homo sapiens) (UniProt Q15596)
# Test: inhibition of GAL4-SRC2 driven luciferase reporter, primary screen, SRC2 inhibitor project, cell-based, luminescence (AID 651957);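 note: 0% = DMSO treated cells and 100% = cells given Gossypol at 36 µM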
# Settings: HEK293 GAL4-SRC2 luciferase reporter, at 9 µM, stronger effect = higher value
row,Compound,inhibition
1,O=P(Nc1nccs1)(Oc1ccccc1)Oc1ccccc1,inactive: -21.5%
2,CCOP1(=S)c2c(C)nn(CCC#N)c2N=C(c2ccccc2F)N1C (stereo not given),inactive: -17.5%
3,Nc1ccccc1[As](=O)(O)c1ccccc1,inactive: -11.9%
4,O=C(O)COc1ccc([As](=O)(O)O)cc1[N+](=O)[O-],inactive: 5.47%
5,NC(=O)Nc1ccc([As](=O)(O)O)cc1,inactive: -10.1%
6,CN(C(=O)Cc1ccc(Cl)c(Cl)c1)[C@H]1CC[C@@]2(CCCO2)C[C@@H]1N1CCCC1,inactive: -2.47%
7,CN(C)C(=O)c1cc([N+](=O)[O-])cc2c1-c1c(cc([N+](=O)[O-])cc1[N+](=O)[O-])C2=O,inactive: 9.01%
8,O=[N+]([O-])c1ccc2c(c1)nnn2O,inactive: 13.8%
9,CCOP1(=S)c2c(C)nn(CCC#N)c2N=C(c2ccc(F)cc2)N1C (stereo not given),inactive: -8.76%
10,CN(C(=O)Cc1ccccc1)[C@@H]1CC[C@]2(CCCO2)C[C@H]1N1CCCC1,inactive: -12.8%
11,N#CCCN(C(=O)COC(=O)C(O)(c1ccccc1)c1ccccc1)c1ccc(F)cc1,inactive: 6.64%
12,CS(=O)(=O)c1ccc(Cl)c(NC(=O)COC(=O)C(O)(c2ccccc2)c2ccccc2)c1,inactive: 14.1%
13,COc1cc(C(=O)NCC2(N3CCOCC3)CCCCC2)cc(Cl)c1OC(C)C,inactive: 6.82%
14,O=[As](O)(O)c1cccnc1,inactive: -10.7%
15,O=C(OC1CN2CCC1CC2)c1ccc(Cl)cc1 (stereo not given),inactive: -7.01%
16,O=[As](O)(c1cccc(O)c1)c1cccc(O)c1,inactive: 3.12%
17,Cc1cccc(OCC(=O)OC2CN3CCC2CC3)c1 (stereo not given),inactive: 3.9%
18,CCCOP(=S)(Nc1nc(N)cc(=O)[nH]1)OCCC,inactive: 10.7%
19,Nc1cccc2c([As](=O)(O)O)cccc12,inactive: 3.13%
20,Cc1ccc(NCCc2c([N+](=O)[O-])cc([N+](=O)[O-])cc2[N+](=O)[O-])cc1,inactive: -14.4%
21,CCOP(=O)(Nc1cccc2ccccc12)OCC,inactive: -16.8%
22,COc1cc(C2NCCC3(OCCO3)C2(C)C)cc(OC)c1OC (stereo not given),inactive: 3.35%
23,CN(CCCl)Cc1cc(Cl)c(NC2=NCCN2)c(Cl)c1,inactive: -28.8%
24,CCOP(=O)(Nc1ccc(C)cn1)OCC,inactive: 13.7%
25,CCOP(=O)(NC(=NC(C)c1ccccc1)NC(C)c1ccccc1)OCC (stereo not given),inactive: 3.95%

row,Compound,inhibition
1,O=P1(Nc2ccccn2)COc2ccccc2OC1,inactive: -2.56%
2,CCC1=CC2Cc3nc4ccc(Cl)cc4c(N)c3C(C1)C2 (stereo not given),inactive: -12%
3,CC(C)(C)C(=O)NC(Sc1ncccn1)C(Cl)(Cl)Cl (stereo not given),inactive: 3.73%
4,O=P1(N(CCCl)CCCl)NCCC(C(F)(F)F)O1 (stereo not given),inactive: -6.48%
5,Clc1n[nH]nc1-c1nn[nH][15n]1,inactive: -1.4%
6,COc1ccccc1CNC(=O)COC(=O)C(O)(c1ccccc1)c1ccccc1,inactive: 20%
7,CC1(CBr)Cn2c(nc3ccccc3c2=O)S1 (stereo not given),inactive: -6.27%
8,CN(C(=O)Cc1ccc(Cl)c(Cl)c1)C1CCCC[C@@H]1N1CCCC1 (stereo not given in full),inactive: -17.8%
9,CC(C)/C=N\N=C(\N)N[N+](=O)[O-],inactive: -4.1%
10,CN(C(=O)Cc1ccc(Cl)c(Cl)c1)[C@@H]1CCCC[C@H]1N1CCCC1,inactive: 14.4%
11,CC1CCC(C(C)C)C(OP(=O)(Nc2ccccn2)c2ccccc2)C1 (stereo not given),inactive: -19.6%
12,Cc1ccc(C(=O)OC2CN3CCC2CC3)cc1 (stereo not given),inactive: 6.9%
13,Cc1nn(-c2ccccc2)c2c1P(=O)(N1CCOCC1)N(C)C(c1ccccc1)=N2 (stereo not given),inactive: -21.3%
14,CCCC1OP(=O)(Nc2ccccc2)OCC1CC (stereo not given),inactive: -9.19%
15,O=C(/C=C/c1ccccc1)OC1CN2CCC1CC2 (stereo not given),inactive: -10.9%
16,CN(C)C1(CNC(=O)c2ccc(S(C)(=O)=O)cc2)CCCCC1,inactive: 6.9%
17,O=P1(Nc2ncccn2)COc2ccccc2OC1,inactive: -8.01%
18,Cc1ccc(S(=O)(=O)N(CCCN)CCCc2c(C)nc(N)[nH]c2=O)cc1,inactive: 8.01%
19,O=P1(Nc2ccc(Br)cn2)COc2ccccc2OC1,inactive: -14.2%
20,NS(=O)(=O)c1cccc(NC(=O)COC(=O)C(O)(c2ccccc2)c2ccccc2)c1,inactive: -11%
21,O=[As](O)(c1cccs1)c1cccs1,inactive: -9.63%
22,Cc1ccc(OCC(=O)OC2CN3CCC2CC3)cc1 (stereo not given),inactive: -20.1%
23,Nc1cccc([As](=O)(O)c2ccccc2)c1,inactive: -12%
24,CC1CCNP(=O)(N(CCCl)CCCl)O1 (stereo not given),inactive: 13.1%
25,CCOC(=O)Nc1ccc([As](=O)(O)O)c(O)c1,inactive: -0.56%
